Literature values in US20210221784A1, “COMPOUNDS AND COMPOSITIONS FOR THE TREATMENT OF PAIN” (Université de Strasbourg, priority 2018, published 2021).

Test system: C57BF6/N male mice
Conditions: previous work, Elhabazi et al. 2012; cited from earlier work

Substance: N^α-adamantan-1-yl-L-Arg-L-Phe-NH2 acetate
- development of fentanyl-induced hyperalgesia: prevents the development of fentanyl-induced hyperalgesia
